Results: patent publication US7829114B2, “Capsules containing aqueous fill compositions stabilized with derivatized cyclodextrin” (CyDex Pharmaceuticals, Inc., priority 2002, dated 2010)

Experiment: Water solubility at saturation
Format: physicochemical

water solubility at saturation: 43 % w/w | maximum achievable concentration (in water): about 42 % wt.
Substance: Dimethylcyclodextrin [DMCD, reference compound]
